# Source: ChEMBL document CHEMBL3352167 (Bioorg Med Chem, 2015)
# Assay: Displacement of [3H]DTG from sigma2 receptor in guinea pig brain membrane after 120 mins by scintillation counting analysis
# Assay type: cell membranes, Cavia porcellus
structure (smiles),measurement,value
CC(C)=CCN1CC[C@]2(C)c3cc(O)ccc3C[C@H]1[C@H]2C [(+)-PENTAZOCINE],Ki,728 nM
